# Data as given in PMC11321638 (Advanced Science, 2024).
# What was measured:
# [1] = system: recombinant RAB3A; assay: fluorescence polarization binding of FITC-labeled peptide to recombinant RAB3A
# [2] = transdermal absorption test, Franz Cell System, FITC-labeled samples; assay type: in vitro ADME; conditions: intact skin of Panama Pig, fluorescent image
# [3] = system: interaction between SNAP25 and RAB3A; assay: competitive fluorescence polarization, inhibition of SNAP25-RAB3A interaction; assay type: binding
smiles,measurement,setting,value
CSCC[C@H](NC(=O)[C@H](CCC(=O)O)NC(=O)[C@H](CCC(=O)O)NC(=O)[C@H](CC(C)C)NC(=O)[C@H](C)NC(=O)[C@H](CC(N)=O)NC(=O)[C@H](CCCNC(=N)N)NC(=O)[C@H](CCSC)NC(=O)[C@H](Cc1ccccc1)NC(=O)[C@H](CCC(=O)O)NC(=O)[C@@H](N)CO)C(=O)N[C@@H](CC(C)C)C(=O)N[C@@H](CCCNC(=N)N)C(=O)N[C@@H](CCCNC(=N)N)C(=O)N[C@@H](C)C(N)=O [RSIpep],enhancement of binding with RAB3A compared to SNAP25pep,[1],over tenfold enhancement
same,penetration of the skin (longitudinal sections),[2],formidable resistance
same,efficacy in inhibiting SNAP25-RAB3A interaction relative to SNAP25pep,[3],approximately fourfold greater
